Experimental data as given in paper PMC4741889, “Ligand-based chemoinformatic discovery of a novel small molecule inhibitor targeting CDC25 dual specificity phosphatases and displaying in vitro efficacy against melanoma cells” (Oncotarget, 2015).

How the values were obtained:
CDC25B = target: T1, CDC25B (Homo sapiens, UniProt P30305); assay: Ki from OMFP hydrolysis kinetics (Lineweaver-Burk), CDC25B; format: biochemical; details: 10 nM CDC25B, 1–25 μM OMFP; mean ± S.E.
T1 construct: Recombinant forms of the catalytic domains of CDC25A, -B and -C were obtained through the vectors pET28a-CDC25A-cd, pET28a-CDC25B-cd and pET28a-CDC25C-cd; made in house
T1 sequence (P30305 431-538 limits assumed): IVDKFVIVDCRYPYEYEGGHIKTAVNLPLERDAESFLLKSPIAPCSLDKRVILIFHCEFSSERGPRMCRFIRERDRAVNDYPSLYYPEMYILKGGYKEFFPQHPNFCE
Description: The inhibition properties of the effective inhibitors were better investigated through the kinetic measurement of their Ki values.
(§1) To measure the inhibition constant (Ki) of the recombinant forms of CDC25A, -B and -C towards the various inhibitors, the affinity of the different forms of CDC25 towards OMFP was measured either in the absence or in the presence of fixed concentrations of the various inhibitors. The reaction mixture contained 20 nM CDC25A, or 10 nM CDC25B, or 40 nM CDC25C, and different concentrations of the various inhibitors in 500 μL final volume of 20 mM Tris-HCl, pH 7.8, 1 mM DTT. DMSO was used as vehicle control. The reaction started by the addition of 1–25 μM OMFP, and the rate of OMFP hydrolysis was measured as indicated before. The corresponding Lineweaver-Burk plots allowed the calculation of the KM for OMFP and of the Vmax of OMFP hydrolysis, expressed as a.u./minmax. […] The Ki values were obtained from the decrease of a.u./minmax in the presence of the inhibitor, according to the equation a.u./mimmax’ = a.u./mimmax/{1 + ([I]/Ki)}, where a.u./mimmax’ represents the Vmax measured in the presence of the concentration [I] of the inhibitor. The Ki values were obtained from at least three independent experiments and reported as mean ± S.E.

CDC25A = target: T2, CDC25A (Homo sapiens, UniProt P30304); assay: Ki from OMFP hydrolysis kinetics (Lineweaver-Burk), CDC25A; format: biochemical; details: 20 nM CDC25A, 1–25 μM OMFP; mean ± S.E.
T2 construct: Recombinant forms of the catalytic domains of CDC25A, -B and -C were obtained through the vectors pET28a-CDC25A-cd, pET28a-CDC25B-cd and pET28a-CDC25C-cd; made in house
T2 sequence (P30304 376-482 limits assumed): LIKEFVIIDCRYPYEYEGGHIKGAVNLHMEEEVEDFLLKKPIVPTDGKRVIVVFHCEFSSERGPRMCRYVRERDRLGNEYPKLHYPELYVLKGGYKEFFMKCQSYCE
Description: as §1, with “The reaction started by the addition of 1–25 μM OMFP, and the rate of OMFP hydrolysis was measured as indicated before.” left out

- Ki (CDC25B): 0.1 ± 0.04 µM
- Ki (CDC25A): 0.34 ± 0.12 µM
SMILES: O=C(O)CCc1c2ccc(=O)c(O)c-2oc2c(O)c(O)ccc12 [NSC 119915, reference compound]
